# Values quoted from earlier work in article PMC5584209, “Anti-tumor efficacy of theliatinib in esophageal cancer patient-derived xenografts models with epidermal growth factor receptor (EGFR) overexpression and gene amplification” (Oncotarget, 2017).
# Test system: esophageal cancer patients with EGFR gene amplification or copy number gain
# Set-up: method as in earlier work
# Details: cited from earlier work
compound,measurement,setting,value
"COc1cc2ncnc(Nc3ccc(F)c(Cl)c3)c2cc1OCCCN1CCOCC1 [Gefitinib, reference compound]",overall survival HR,"patients carrying EGFR gene amplification, p = 0.007",0.19
same,overall survival HR,"patients with EGFR gene copy number gain, p = 0.042",0.53

# Read-outs that look alike come from different tables or passages of the source.
